Measurements: publication PMC8874853 (Molecules, 2022)

By UniProt entry, the sequences of proteins in these tests, tags left out. Residues count along the entry.
UniProt P02769, 25-607: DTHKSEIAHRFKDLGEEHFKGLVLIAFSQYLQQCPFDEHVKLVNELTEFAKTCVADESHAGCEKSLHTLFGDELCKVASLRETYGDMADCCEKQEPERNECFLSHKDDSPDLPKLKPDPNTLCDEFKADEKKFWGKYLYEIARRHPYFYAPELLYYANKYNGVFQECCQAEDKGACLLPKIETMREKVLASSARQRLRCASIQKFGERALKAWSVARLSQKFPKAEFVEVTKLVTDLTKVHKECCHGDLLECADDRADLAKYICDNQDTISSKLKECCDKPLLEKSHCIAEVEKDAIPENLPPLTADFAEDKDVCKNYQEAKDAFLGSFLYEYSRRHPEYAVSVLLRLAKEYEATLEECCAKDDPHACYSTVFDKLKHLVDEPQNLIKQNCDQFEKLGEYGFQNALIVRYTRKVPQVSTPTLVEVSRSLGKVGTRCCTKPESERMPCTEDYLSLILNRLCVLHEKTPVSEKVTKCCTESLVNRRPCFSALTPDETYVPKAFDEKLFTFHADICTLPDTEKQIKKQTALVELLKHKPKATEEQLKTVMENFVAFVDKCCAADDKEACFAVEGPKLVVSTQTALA

Target: T1, BSA (Bos taurus, UniProt P02769)
T1 construct: purchased Sigma-Aldrich (St. Louis, MO, USA)
Experiment: Synchronous fluorescence spectroscopy (SFS)
Type: binding, bovine
Details: ∆λ = 60 nm, BSA-ERL
Source text: The microenvironmental changes in the fluorophore residues were identified with the SFS technique. The changes in the amino acid residues Tyr (tyrosine) and Trp (tryptophan) can be observed at ∆λ = 15 nm and ∆λ = 60 nm. A shift in the emission spectra indicates changes in the polarity of amino acid residues around the fluorophore molecules.
The microenvironment alterations in the fluorophore residues can be identified with synchronous fluorescence spectroscopy. The changes in emission wavelength indicate polarity change in the fluorophore residue microenvironment. The synchronous spectra recorded at ∆λ = 15 nm and ∆λ = 60 nm provide information about the Tyr and Trp residue microenvironment.

- shift of synchronous spectra for Trp (blue-shift): 1 nm
SMILES: C#Cc1cccc(Nc2ncnc3cc(OCCOC)c(OCCOC)cc23)c1 [ERL, Erlotinib]
